From EP0791603A2, “Pure somatostatin antagonist and methods of use thereof” (American Cyanamid Company, priority 1996, dated 1997)

Chains of the proteins cited; added tags and fusions are not shown. Lines headed by an entry give the natural chain unless they say otherwise; changes in a name come on top.
UniProt P30680: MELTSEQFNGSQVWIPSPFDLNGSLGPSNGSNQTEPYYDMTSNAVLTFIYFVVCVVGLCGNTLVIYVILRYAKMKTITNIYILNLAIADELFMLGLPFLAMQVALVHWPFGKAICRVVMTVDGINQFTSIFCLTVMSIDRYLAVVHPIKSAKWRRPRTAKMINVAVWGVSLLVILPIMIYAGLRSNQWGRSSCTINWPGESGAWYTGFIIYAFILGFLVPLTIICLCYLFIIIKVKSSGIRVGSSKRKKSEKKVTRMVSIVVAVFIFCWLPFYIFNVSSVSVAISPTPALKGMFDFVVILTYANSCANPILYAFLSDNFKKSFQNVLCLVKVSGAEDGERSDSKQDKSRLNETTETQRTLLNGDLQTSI

Target: T1, rat somatostatin receptor subtype 2 (SSTR2) (Rattus norvegicus, UniProt P30680)
T1 construct: expressed in transfected cells; host or cells: Saccharomyces cerevisiae LY364
Assay: Yeast assay, somatostatin agonist activity (growth zone of modified yeast cells on histidine-free agar)
Format: cell-based
Details: 10 µL of a 1 mg/mL solution of S-14 in sterile water applied to the surface of the plate
Procedure: In this evaluation, yeast cells which have been specifically modified to functionally express rat somatostatin receptor subtype 2 (SSTR2) on their cell surfaces are used. S. Cerevisiae LY364 cells are plated in a standard synthetic agar medium which lacks histidine. In the absence of a somatostatin receptor agonist, the auxotrophic (his3) cells are unable to grow. In the presence of somatostatin, or a somatostatin agonist, the expression of an enzyme (His3p: imidazole-glycerol phosphate dehydratase) which is essential for histidine biosynthesis is induced. The cells become competent to produce histidine, resulting in a zone of growing cells around the applied test compound. The zone is measured and the test compound is given an agonist rating on a scale of 1-5 wherein 1 is minimum agonist activity and 5 is maximum agonist activity.
SCD-ura-trp: • 1) To 500 mL water add: • 1.7 g YNB without amino acids and (NH4)2SO4 • 5.0 g (NH4)2SO4 • 0.7 g CSM-ura-trp • 2) To additional 500 mL water add: 20 g Dextrose • 3) Autoclave separately. Mix.
SCL-ura-trp: • 1) To 500 mL water add: • 1.7 g YNB without amino acids and (NH4)2SO4 • 5.0 g (NH4)2SO4 • 0.7 g CSM-ura-trp • 2) To additional 500 mL water add: 30 mL Lactic Acid • 3) Autoclave separately. Mix. […]
On day 3, add 5µL 1 mg/mL S-14 to each plate. […] Growth in response to somatostatin should be readily observable. […]

Substance: Somatostatin-14 [reference compound]
- zone of growth, diameter: 2.5-3 cm
